Amino acid sequences for entries named in this document (tags omitted). A change or cut given only in a name is not applied to a line headed by its entry.
UniProt Q99683: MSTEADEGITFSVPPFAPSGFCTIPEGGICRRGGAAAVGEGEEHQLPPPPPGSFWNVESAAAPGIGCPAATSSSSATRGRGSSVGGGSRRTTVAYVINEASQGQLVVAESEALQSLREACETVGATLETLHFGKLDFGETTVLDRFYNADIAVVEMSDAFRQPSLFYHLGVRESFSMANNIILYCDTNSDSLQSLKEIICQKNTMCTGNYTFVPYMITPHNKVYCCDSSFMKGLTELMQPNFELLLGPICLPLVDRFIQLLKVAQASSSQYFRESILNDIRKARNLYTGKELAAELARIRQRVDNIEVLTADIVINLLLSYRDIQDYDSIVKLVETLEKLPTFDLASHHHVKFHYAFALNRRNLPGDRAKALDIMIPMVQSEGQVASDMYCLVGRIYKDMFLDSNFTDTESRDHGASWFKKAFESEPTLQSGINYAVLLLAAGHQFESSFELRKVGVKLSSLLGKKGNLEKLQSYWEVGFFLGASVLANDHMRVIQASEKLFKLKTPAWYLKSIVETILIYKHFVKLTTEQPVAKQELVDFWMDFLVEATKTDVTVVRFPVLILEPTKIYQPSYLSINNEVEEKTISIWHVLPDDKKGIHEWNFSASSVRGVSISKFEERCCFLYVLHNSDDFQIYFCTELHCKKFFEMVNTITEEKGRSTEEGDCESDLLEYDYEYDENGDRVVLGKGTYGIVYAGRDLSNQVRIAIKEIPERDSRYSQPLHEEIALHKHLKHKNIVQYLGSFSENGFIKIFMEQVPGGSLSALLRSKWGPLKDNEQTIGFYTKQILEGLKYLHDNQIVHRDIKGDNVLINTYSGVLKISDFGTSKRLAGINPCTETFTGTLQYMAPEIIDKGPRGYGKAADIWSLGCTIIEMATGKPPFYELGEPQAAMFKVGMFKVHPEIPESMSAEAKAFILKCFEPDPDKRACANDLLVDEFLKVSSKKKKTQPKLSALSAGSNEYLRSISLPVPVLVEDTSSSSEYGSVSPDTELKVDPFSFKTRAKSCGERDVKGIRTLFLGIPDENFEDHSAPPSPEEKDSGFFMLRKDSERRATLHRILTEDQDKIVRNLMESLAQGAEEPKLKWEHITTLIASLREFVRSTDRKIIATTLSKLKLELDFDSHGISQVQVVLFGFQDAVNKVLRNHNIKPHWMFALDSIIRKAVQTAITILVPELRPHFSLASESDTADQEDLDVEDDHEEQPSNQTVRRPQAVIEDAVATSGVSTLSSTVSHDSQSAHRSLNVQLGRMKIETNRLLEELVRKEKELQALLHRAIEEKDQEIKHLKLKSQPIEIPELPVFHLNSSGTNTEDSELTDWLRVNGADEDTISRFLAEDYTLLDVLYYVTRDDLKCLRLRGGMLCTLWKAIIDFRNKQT
UniProt O43781: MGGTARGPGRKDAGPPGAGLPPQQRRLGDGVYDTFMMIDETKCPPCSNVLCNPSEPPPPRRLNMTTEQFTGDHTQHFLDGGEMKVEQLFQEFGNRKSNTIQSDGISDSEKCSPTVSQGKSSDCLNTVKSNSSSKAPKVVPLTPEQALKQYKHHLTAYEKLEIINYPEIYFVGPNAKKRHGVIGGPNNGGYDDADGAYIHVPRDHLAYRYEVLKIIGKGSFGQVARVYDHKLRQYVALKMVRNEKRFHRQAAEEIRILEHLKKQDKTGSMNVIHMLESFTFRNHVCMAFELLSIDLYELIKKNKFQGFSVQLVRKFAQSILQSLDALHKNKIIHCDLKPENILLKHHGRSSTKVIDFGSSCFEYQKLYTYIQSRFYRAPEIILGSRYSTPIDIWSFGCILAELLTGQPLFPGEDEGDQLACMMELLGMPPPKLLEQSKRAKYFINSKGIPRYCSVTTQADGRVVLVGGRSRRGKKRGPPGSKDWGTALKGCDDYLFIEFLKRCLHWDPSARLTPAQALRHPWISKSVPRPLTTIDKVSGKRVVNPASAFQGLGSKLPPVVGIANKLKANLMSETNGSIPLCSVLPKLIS
UniProt Q9UBS0: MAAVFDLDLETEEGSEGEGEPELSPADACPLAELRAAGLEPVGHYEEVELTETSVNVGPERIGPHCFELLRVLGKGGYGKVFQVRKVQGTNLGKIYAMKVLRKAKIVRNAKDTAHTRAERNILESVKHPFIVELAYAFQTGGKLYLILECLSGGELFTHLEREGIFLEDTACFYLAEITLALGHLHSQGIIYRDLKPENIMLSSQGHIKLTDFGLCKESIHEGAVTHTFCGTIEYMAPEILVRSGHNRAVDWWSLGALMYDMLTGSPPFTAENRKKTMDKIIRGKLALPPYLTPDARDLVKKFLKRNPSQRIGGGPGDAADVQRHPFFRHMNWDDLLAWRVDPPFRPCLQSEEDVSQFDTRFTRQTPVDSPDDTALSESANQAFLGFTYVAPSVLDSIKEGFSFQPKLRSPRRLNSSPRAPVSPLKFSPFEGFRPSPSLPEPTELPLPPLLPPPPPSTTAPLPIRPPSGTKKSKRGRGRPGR
UniProt Q9UM73: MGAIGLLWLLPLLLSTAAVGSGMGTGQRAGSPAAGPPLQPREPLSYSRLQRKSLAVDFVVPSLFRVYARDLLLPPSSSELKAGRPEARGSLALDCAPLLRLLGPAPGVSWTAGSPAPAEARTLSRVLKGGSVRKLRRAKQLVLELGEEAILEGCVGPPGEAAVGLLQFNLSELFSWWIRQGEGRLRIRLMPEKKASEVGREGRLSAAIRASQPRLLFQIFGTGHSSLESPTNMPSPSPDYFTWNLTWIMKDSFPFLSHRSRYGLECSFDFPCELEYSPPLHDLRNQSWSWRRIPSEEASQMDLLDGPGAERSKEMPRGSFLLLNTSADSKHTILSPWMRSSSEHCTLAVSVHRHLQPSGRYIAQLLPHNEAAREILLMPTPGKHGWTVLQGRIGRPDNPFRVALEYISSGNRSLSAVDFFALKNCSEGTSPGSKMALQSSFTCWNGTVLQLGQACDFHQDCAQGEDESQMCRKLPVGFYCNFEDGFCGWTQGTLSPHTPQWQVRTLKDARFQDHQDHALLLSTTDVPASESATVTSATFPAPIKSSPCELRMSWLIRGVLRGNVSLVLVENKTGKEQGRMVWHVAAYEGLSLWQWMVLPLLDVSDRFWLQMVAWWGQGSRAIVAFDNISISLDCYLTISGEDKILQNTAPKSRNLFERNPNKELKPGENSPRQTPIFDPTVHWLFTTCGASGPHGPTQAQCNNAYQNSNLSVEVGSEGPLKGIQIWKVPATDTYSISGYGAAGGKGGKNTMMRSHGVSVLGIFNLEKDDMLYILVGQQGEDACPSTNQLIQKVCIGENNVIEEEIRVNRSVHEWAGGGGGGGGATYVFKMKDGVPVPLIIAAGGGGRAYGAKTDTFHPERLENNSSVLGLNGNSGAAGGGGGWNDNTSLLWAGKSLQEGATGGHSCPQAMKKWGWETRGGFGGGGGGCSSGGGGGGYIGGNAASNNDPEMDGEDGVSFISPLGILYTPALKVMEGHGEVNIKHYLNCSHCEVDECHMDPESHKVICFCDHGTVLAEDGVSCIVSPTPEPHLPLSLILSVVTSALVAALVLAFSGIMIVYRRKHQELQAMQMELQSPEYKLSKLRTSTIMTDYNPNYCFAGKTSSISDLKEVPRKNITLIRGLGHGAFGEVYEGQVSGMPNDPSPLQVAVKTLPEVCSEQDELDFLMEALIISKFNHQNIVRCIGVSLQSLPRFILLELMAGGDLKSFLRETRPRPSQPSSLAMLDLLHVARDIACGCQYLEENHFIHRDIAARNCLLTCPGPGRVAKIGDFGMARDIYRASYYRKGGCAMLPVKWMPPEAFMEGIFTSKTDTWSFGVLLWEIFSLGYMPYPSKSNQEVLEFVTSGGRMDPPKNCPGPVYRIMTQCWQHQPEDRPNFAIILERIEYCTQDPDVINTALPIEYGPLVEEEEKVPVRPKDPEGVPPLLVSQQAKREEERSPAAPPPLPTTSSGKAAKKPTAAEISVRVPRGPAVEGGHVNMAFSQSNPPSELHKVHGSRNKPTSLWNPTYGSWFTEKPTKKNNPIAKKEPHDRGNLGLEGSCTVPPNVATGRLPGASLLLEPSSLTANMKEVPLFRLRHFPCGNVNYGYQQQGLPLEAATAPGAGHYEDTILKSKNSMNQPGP
UniProt O95747, whole entry: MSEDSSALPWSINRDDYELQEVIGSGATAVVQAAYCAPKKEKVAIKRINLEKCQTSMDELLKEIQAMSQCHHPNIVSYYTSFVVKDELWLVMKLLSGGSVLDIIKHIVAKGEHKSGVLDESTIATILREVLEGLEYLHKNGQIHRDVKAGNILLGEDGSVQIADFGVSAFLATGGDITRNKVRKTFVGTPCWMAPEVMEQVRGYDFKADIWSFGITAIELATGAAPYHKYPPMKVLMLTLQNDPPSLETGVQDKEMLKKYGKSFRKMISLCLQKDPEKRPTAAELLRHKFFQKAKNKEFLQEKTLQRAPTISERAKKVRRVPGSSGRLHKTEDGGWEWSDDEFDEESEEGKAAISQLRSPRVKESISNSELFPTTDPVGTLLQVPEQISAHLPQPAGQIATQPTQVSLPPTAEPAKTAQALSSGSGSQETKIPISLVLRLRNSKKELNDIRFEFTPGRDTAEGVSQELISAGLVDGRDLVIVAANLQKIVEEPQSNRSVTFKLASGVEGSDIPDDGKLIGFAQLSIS
UniProt Q16644, whole entry: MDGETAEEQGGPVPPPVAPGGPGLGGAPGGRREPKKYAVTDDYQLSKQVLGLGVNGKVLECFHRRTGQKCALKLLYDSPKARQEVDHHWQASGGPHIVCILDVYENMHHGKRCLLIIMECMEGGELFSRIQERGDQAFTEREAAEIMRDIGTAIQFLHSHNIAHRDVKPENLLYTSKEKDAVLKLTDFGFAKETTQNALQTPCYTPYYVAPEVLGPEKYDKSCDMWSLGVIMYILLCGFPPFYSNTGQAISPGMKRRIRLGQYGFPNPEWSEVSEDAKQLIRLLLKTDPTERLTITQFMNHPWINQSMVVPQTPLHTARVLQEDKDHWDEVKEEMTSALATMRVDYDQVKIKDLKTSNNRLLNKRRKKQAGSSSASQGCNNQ
UniProt Q9P286: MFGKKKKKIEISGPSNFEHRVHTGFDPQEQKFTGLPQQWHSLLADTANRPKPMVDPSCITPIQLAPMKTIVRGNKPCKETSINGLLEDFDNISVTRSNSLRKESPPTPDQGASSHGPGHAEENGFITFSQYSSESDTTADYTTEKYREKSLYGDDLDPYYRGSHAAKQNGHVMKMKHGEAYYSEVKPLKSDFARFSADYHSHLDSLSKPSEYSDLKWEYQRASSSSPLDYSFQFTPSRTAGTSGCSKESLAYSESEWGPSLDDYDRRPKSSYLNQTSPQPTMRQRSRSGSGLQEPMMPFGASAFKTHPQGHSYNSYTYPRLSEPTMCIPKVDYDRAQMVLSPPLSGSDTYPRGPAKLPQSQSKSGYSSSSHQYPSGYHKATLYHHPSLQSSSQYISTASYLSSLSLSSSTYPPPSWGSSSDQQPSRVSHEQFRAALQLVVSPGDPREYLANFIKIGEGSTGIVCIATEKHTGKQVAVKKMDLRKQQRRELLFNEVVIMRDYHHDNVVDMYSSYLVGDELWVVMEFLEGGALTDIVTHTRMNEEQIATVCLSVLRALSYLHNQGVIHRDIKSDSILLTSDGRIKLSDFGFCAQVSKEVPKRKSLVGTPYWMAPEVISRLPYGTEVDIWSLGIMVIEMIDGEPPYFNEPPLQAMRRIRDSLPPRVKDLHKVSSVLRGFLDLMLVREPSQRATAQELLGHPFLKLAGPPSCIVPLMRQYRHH
UniProt Q13557, whole entry: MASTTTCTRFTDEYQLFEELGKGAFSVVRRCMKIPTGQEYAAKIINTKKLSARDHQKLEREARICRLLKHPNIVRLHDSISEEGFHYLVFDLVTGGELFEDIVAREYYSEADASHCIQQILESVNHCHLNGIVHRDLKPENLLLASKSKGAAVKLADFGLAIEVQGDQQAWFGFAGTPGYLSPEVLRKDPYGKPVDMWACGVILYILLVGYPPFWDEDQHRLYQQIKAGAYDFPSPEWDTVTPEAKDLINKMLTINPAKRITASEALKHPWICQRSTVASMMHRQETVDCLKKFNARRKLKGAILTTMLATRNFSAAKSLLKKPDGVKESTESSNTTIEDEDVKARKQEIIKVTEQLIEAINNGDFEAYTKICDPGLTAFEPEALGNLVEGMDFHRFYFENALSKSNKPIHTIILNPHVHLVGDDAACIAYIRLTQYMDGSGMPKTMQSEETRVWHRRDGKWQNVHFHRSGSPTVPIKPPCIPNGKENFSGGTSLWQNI
UniProt P46734: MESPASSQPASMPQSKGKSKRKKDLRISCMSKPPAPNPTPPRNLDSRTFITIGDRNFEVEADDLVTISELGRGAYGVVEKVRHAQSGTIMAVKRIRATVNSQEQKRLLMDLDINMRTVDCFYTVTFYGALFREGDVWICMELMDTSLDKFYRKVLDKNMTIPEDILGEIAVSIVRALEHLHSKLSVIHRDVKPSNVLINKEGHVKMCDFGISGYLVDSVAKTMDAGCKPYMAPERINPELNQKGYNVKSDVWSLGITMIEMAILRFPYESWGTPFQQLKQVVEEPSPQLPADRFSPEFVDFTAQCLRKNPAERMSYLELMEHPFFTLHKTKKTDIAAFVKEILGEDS

In article PMC7611940, “A Conformation Selective Mode of Inhibiting SRC Improves Drug Efficacy and Tolerability” (Cancer Research, 2021):

Columns and labels:
Experiment in all cases: biochemical
Settings in all cases: read-out: % remaining activity
ASK1 = biological target: T1, ASK1 (Homo sapiens, UniProt Q99683)
T1 construct: gene MAP3K5

JAK2 = JAK2 (Homo sapiens, UniProt O60674)
MAP3K8 = MAP3K8 (Homo sapiens, UniProt P41279)
CAMKK2 = CAMKK2 (Homo sapiens, UniProt Q96RR4)
ROCK2 = ROCK2 (Homo sapiens, UniProt O75116)
RON = biological target: T2, RON (Homo sapiens, UniProt Q04912)
T2 construct: gene MST1R

CDC7/DBF4 = CDC7/DBF4 (Homo sapiens, UniProt O00311)
LCK = LCK (Homo sapiens, UniProt P06239)
RET = RET (Homo sapiens, UniProt P07949)
MAP4K5 = MAP4K5 (Homo sapiens, UniProt Q9Y4K4)
PIM3 = PIM3 (Homo sapiens, UniProt Q86V86)
AURKC = AURKC (Homo sapiens, UniProt Q9UQB9)
CAMK4 = CAMK4 (Homo sapiens, UniProt Q16566)
DYRK3 = DYRK3 (Homo sapiens, UniProt O43781)
GSK3b = GSK3b (Homo sapiens, UniProt P49841)
SLK = SLK (Homo sapiens, UniProt Q9H2G2)
EPHA1 = EPHA1 (Homo sapiens, UniProt P21709)
RPS6KB2 = RPS6KB2 (Homo sapiens, UniProt Q9UBS0)
ALK = ALK (Homo sapiens, UniProt Q9UM73)
JNK3 = biological target: T3, JNK3 (Homo sapiens, UniProt P53779)
T3 construct: gene MAPK10

OSR1 = biological target: T4, OSR1 (Homo sapiens, UniProt O95747)
T4 construct: gene OXSR1

TTBK2 = TTBK2 (Homo sapiens, UniProt Q6IQ55)
ZAP70 = ZAP70 (Homo sapiens, UniProt P43403)
MAPKAPK3 = MAPKAPK3 (Homo sapiens, UniProt Q16644)
PKG1b = biological target: T5, PKG1b (Homo sapiens, UniProt Q13976)
T5 construct: gene PRKG1

TAOK2 = TAOK2 (Homo sapiens, UniProt Q9UL54)
DDR1 = DDR1 (Homo sapiens, UniProt Q08345)
RPS6KA5 = RPS6KA5 (Homo sapiens, UniProt O75582)
LATS1 = LATS1 (Homo sapiens, UniProt O95835)
MAP2K4 = MAP2K4 (Homo sapiens, UniProt P45985)
SRPK1 = SRPK1 (Homo sapiens, UniProt Q96SB4)
PAK5 = PAK5 (Homo sapiens, UniProt Q9P286)
CAMK2d = CAMK2d (Homo sapiens, UniProt Q13557)
MEK3 = biological target: T6, MEK3 (Homo sapiens, UniProt P46734)
T6 construct: gene MAP2K3

HER2/ERBB2 = HER2/ERBB2 (Homo sapiens, UniProt P04626)
IKKb = biological target: T7, IKKb (Homo sapiens, UniProt O14920)
T7 construct: gene IKBKB

remaining activity at 1 µM (ASK1): 99.6% | remaining activity at 1 µM (JAK2): 97.5% | remaining activity at 1 µM (MAP3K8): 74.6% | remaining activity at 1 µM (CAMKK2): 117% | remaining activity at 1 µM (ROCK2): 92.8% | remaining activity at 1 µM (RON): 90.9% | remaining activity at 1 µM (CDC7/DBF4): 107% | remaining activity at 1 µM (LCK): 1.4% | remaining activity at 1 µM (RET): 98.6% | remaining activity at 1 µM (MAP4K5): 81.7% | remaining activity at 1 µM (PIM3): 90.6% | remaining activity at 1 µM (AURKC): 102% | remaining activity at 1 µM (CAMK4): 92.7% | remaining activity at 1 µM (DYRK3): 93% | remaining activity at 1 µM (GSK3b): 94.6% | remaining activity at 1 µM (SLK): 102% | remaining activity at 1 µM (EPHA1): 86.7% | remaining activity at 1 µM (RPS6KB2): 108% | remaining activity at 1 µM (ALK): 102% | remaining activity at 1 µM (JNK3): 95.1% | remaining activity at 1 µM (OSR1): 103% | remaining activity at 1 µM (TTBK2): 106% | remaining activity at 1 µM (ZAP70): 102% | remaining activity at 1 µM (MAPKAPK3): 97.7% | remaining activity at 1 µM (PKG1b): 94.6% | remaining activity at 1 µM (TAOK2): 96.9% | remaining activity at 1 µM (DDR1): 79.6% | remaining activity at 1 µM (RPS6KA5): 91.1% | remaining activity at 1 µM (LATS1): 102% | remaining activity at 1 µM (MAP2K4): 107% | remaining activity at 1 µM (SRPK1): 93.3% | remaining activity at 1 µM (PAK5): 104% | remaining activity at 1 µM (CAMK2d): 102% | remaining activity at 1 µM (MEK3): 101% | remaining activity at 1 µM (HER2/ERBB2): 126% | remaining activity at 1 µM (IKKb): 109%
SMILES: COc1cc(-c2nn(CCN3CCC(N(C)C)CC3)c3ncnc(N)c23)ccc1NC(=O)OC(C)(C)C [eCF506]
